From patent US8372973B2, “Prokineticin 1 receptor antagonists” (Janssen Pharmaceutica N.V., priority 2005, dated 2013)

Test system: rat ileal tissues

| Structure (SMILES) | blockade of the pro-secretory effect of PK1 |
| --- | --- |
| CN1[C@@H]2CC[C@H]1C[C@@H](OC(=O)C(CO)c1ccccc1)C2 (some centres unmarked) [Atropine, reference compound] | not blocked |
| NC1=N[C@H](O)[C@H]2[C@H]3O[C@]4(O)O[C@@H]([C@@H](O)[C@@]2(N1)[C@@H]4O)[C@]3(O)CO [Tetrodotoxin, reference compound] | not blocked |
